Laboratory results from ChEMBL document CHEMBL3585347, “Isolation of cholinesterase and β-secretase 1 inhibiting compounds from Lycopodiella cernua” (Bioorg Med Chem, 2015).

Sequences of proteins named here, by UniProt entry; tags and fusion partners are left off. A change or cut given only in a name is not applied to a line headed by its entry.
UniProt P22303: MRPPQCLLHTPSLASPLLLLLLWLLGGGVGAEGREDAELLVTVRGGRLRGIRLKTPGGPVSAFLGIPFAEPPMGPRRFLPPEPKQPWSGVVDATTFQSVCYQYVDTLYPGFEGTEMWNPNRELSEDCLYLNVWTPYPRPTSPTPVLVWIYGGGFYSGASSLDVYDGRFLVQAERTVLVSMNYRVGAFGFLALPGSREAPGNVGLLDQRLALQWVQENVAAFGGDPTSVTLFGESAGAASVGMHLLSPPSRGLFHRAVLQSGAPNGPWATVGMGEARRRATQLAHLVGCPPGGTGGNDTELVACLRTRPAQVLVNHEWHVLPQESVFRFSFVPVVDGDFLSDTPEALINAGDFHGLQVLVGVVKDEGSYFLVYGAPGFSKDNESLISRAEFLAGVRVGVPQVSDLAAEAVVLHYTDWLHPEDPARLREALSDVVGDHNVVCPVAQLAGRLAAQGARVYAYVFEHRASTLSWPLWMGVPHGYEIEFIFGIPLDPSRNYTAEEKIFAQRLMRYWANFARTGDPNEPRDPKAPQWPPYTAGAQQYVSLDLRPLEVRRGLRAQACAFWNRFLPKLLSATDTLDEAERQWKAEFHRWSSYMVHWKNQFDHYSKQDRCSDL

Biological target: Acetylcholinesterase (Homo sapiens, UniProt P22303)
Assay: Inhibition of AChE (unknown origin) using acetylthiocholine as substrate assessed as substrate hydrolysis by spectrophotometric/Ellman method

SMILES: COc1ccc2cc3[n+](cc2c1OC)CCc1cc2c(cc1-3)OCO2 [BERBERINE]
- IC50: 100 nM
